# Data published in patent EP0847397B1, “WATER-SOLUBLE C-RING ANALOGUES OF 20 (S)-CAMPTOTHECIN” (DR. REDDY'S RESEARCH FOUNDATION, priority 1996, dated 1997).
# Amino acid sequences for entries named in this document (tags omitted). Residues count along the entry.
# UniProt P02768, 25-609: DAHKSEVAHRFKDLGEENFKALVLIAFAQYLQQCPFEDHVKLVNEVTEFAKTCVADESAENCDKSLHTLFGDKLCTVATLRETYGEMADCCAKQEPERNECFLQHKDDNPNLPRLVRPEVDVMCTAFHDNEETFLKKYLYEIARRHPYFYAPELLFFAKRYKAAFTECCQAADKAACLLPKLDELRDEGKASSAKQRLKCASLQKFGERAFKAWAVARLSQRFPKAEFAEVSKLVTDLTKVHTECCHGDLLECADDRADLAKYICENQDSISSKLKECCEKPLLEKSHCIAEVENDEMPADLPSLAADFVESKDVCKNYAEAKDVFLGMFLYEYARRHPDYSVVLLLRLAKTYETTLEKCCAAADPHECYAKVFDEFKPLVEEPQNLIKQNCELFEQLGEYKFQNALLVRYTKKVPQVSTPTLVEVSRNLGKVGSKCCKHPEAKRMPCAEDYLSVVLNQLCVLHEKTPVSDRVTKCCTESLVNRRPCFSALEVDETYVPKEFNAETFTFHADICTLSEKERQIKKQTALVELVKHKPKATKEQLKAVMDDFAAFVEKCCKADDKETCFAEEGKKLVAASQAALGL
# How the values were obtained:
# Human Serum Albumin = Human Serum Albumin (Homo sapiens, UniProt P02768); details: in the presence of HSA at 37°C, compared with 20 (S) camptothecin and 9-aminocamptothecin; cited from earlier work
# CCRF - CEM = assay: In vitro activity against AIDS related Lymphoma (ARL) cell lines (NCI protocol); format: cell-based; details: Homo sapiens, ARL cell line
# SU-DHL-7 = assay: as above; format: cell-based; details: Homo sapiens, SU-DHL-7, ARL cell line
# RL = assay: as above; format: cell-based; details: Homo sapiens, ARL cell line
# [1] = test system: NCI's 60 human tumor cell line assay; assay: cells; format: cell-based; details: 60 cell, 48 h, read-out: IC50 (mean GI50 against NCI's 60 human tumor cell line assay)
Compound,percentage (%) of lactone form at equilibrium (Human Serum Albumin),IC (TGI) (CCRF - CEM; 48 h),GI50 (CCRF - CEM),IC (TGI) (SU-DHL-7; 48 h),GI50 (SU-DHL-7),IC (TGI) (RL; 48 h),GI50 (RL),mean GI50 [1]
"CCc1c2c(nc3ccc(O)cc13)-c1cc3c(c(=O)n1C2)COC(=O)[C@]3(O)CC [SN-38, 7-ethyl-10-hydroxycamptothecin]",higher percentage (%) of lactone form at equilibrium,–,–,–,–,–,–,–
"CCc1c2c(nc3ccccc13)-c1cc3c(c(=O)n1C2OCCO)COC(=O)[C@]3(O)CC (some centres unmarked) [Example 32, 5-(2'-Hydroxyethoxy)-7-ethylcamptothecin]",–,1.83 µM,0.318 µM,3.51 µM,0.609 µM,3.94 µM,0.463 µM,4.78 µM
